# Results taken from PubChem BioAssay AID951 (NMMLSC, 2007).
# Chains of the proteins cited; added tags and fusions are not shown.
# UniProt Q9HD36, whole entry: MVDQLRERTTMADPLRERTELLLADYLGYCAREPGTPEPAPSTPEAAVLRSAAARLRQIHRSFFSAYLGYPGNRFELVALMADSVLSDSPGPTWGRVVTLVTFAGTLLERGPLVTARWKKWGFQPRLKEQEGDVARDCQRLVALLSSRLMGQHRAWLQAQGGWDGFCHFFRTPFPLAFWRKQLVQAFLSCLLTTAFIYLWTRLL
# This is a selection; strong and weak results do not stand in their true shares. Active and inactive are the calls of the source. Rule as the data show it: active = inhibition above about 40%.
# Target: Bcl-2-like protein 10 (Homo sapiens) (UniProt Q9HD36)
# Assay: inhibitors of Bim-Bcl-B binding, primary screen, biochemical, multiplexed, human Bcl-2 family (AID 951);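 also: 0% = tracer peptide without compound and 100% = reference inhibitor peptide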
# Details: bead-based flow cytometry, Bim peptide-Bcl-B binding; at 10 µM; hits give high values
row,SMILES,inhibition
1,Fc1ccccc1NC1CCN(Cc2ccccc2)CC1,inactive: -1%
2,CN(C)c1ccc(C(=O)NCC2(N3CCCCC3)CCCCC2)cc1,inactive: -3%
3,CCN1CCC(Nc2cccc(F)c2)CC1,inactive: -5%
4,CC(C)(C)OC(=O)N1CCC(Nc2ccccc2)CC1,inactive: -10%
5,CCOc1ncccc1C(=O)NCC1(N2CCOCC2)CCCCC1,inactive: -2%
6,CCC(CO)(C(=O)OC1CN2CCC1CC2)c1ccccc1 (stereo not given),inactive: -6%
7,COc1cc(OC)cc(C(=O)NCC2(N3CCOCC3)CCCCC2)c1,inactive: -1%
8,COc1ccc(C(=O)NCC2(N3CCOCC3)CCCCC2)cc1OC,inactive: -2%
9,O=C(OC1CN2CCC1CC2)C1c2ccccc2C=Cc2ccccc21 (stereo not given),inactive: -2%
10,N/C(=N\O)c1c(N)no[n+]1[O-],inactive: -2%
11,N#Cc1ccc(C(=O)NCC2(N3CCCCC3)CCCCC2)cc1,inactive: -4%
12,c1ccc(CN2CCC(Nc3ccccc3)CC2)cc1,inactive: -6%
13,O=C(NCC1(N2CCCCC2)CCCCC1)c1cccc([N+](=O)[O-])c1,inactive: 1%
14,N#CC1(Nc2ccccc2)CCN(CCc2ccccc2)CC1,inactive: -2%
15,COc1ccc(NC2CCN(C(=O)OC(C)(C)C)CC2)cc1,inactive: -2%
16,CN1CCN(CCOC(=O)C(O)(c2ccccc2)c2ccccc2)CC1,inactive: -6%
17,O=C(NCC1(N2CCOCC2)CCCCC1)c1cc(=O)[nH]c2ccccc12,inactive: -3%
18,CN(C)c1cccc(C(=O)NCC2(N3CCCCC3)CCCCC2)c1,inactive: 3%
19,COc1ccc(CN(CCCl)CCCl)cc1Cl,inactive: -2%
20,CC(C)c1ccc(NC2CCN(C(=O)OC(C)(C)C)CC2)cc1,inactive: 0%
21,COc1ccc(C(=O)NCC2(N3CCCCC3)CCCCC2)c(OC)c1OC,inactive: 0%
22,CCOC(=O)N1CCC(Nc2ccc(OC)cc2)CC1,inactive: -7%
23,O=C(OC1CN2CCC1CC2)C1c2ccccc2Oc2ccccc21 (stereo not given),inactive: 0%
24,O=C(NCC1(N2CCOCC2)CCCCC1)c1cc2ccccc2o1,inactive: 6%
25,COc1ccc(NC2CCN(CCc3ccccc3)CC2)c(OC)c1,inactive: -9%
